Protein sequences, listed by entry. Tags and fused reporters are not part of them.
UniProt P21554, whole entry: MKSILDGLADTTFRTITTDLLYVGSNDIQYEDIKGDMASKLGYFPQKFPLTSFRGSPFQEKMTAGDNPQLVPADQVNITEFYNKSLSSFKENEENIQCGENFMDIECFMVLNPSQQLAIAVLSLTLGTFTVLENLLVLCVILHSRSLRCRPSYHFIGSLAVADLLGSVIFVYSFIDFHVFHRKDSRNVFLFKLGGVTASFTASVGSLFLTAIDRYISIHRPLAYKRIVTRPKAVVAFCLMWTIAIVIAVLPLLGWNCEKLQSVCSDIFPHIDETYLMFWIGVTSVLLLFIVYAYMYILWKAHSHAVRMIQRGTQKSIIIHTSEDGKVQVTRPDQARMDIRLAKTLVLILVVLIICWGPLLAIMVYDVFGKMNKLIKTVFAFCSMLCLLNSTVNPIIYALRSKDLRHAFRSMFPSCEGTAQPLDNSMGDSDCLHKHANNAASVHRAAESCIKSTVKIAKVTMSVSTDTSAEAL

According to ChEMBL document CHEMBL4364254 (J Med Chem, 2019):

Molecular target: Cannabinoid receptor 1 (Homo sapiens, UniProt P21554)
Test: Inverse agonist activity at human CB1 receptor expressed in CHOK1 cells co-expressing Galphaq16 assessed as reduction in CP55940-induced intracellular calcium mobilization by calcein-4 AM dye based fluorescence assay
Type: functional, cell-based

Question: Which EC50 does the source give for `O=C(Nc1ccc(OC(F)F)nc1)NC1CCN(c2ncnc3c2nc(-c2ccccc2Cl)n3-c2ccc(Cl)cc2)CC1` here?
Answer: The EC50 was 718 nM.
